For this experiment, the target named is Mcl-1 (Homo sapiens, UniProt Q07820). Description: FP-based binding assay, Mcl-1. The settings on record: for Ki / IC50: competitive FP; for Ki: Ki calculated from IC50, read-out: Mcl-1 Ki ± SD.

The chains behind the UniProt entries cited, without tags or fusion partners. Residues count along the entry.
UniProt Q07820, 171-327: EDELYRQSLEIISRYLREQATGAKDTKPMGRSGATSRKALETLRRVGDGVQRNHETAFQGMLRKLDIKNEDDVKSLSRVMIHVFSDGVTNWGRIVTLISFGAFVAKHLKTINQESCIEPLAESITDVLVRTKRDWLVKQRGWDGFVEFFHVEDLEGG

Like-named read-outs stand apart in the source and are kept apart here.

As to `O=C(O)CSc1cc(NS(=O)(=O)c2ccc(Oc3ccccc3)cc2)c2ccccc2c1O` [Compound 18, 2-((1-Hydroxy-4-(4-phenoxyphenylsulfonamido)naphthalen-2-yl)thio)acetic acid], the “fold improved binding to Mcl-1 compared to 2” value was “around 19 fold” and the Ki is 0.18 ± 0.05 µM. Moreover, the IC50 (read-out: IC50 Mcl-1) was determined as 0.74 µM.
Take `O=C(O)CSc1cc(NC(=O)c2ccc(Br)cc2)c2ccccc2c1O` [Compound 23, 2-((4-(4-Bromobenzamido)-1-hydroxynaphthalen-2-yl)thio)acetic acid]: under “FP assay”, the “binding to Mcl-1, result in words” value is “the binding to Mcl-1 was abolished”.
With `O=C(O)CSc1cc(NC(=O)Cc2ccc(Cl)cc2)c2ccccc2c1O` [Compound 26, 2-((4-(2-(4-Chlorophenyl)acetamido)-1-hydroxynaphthalen-2-yl)thio)acetic acid], the Ki was 12.5 ± 1.24 µM. Also, the IC50 (Flu-BID 2 nM, Mcl-1 90 nM, read-out: Mcl-1 IC50 ± SD) was found to be 45.7 ± 4.5 µM.

What is called Ki is the dissociation constant of the complex between target and ligand, obtained from inhibition or displacement. As a reminder, the IC50 is the concentration that inhibits the measured activity by half.

The record behind these values is patent US9486422B2, “Small molecule inhibitors of Mcl-1 and the uses of thereof” (THE REGENTS OF THE UNIVERSITY OF MICHIGAN, priority 2011, dated 2016).
